Test results taken from patent US9296716B2, “Androgen receptor ligands” (THE PROVOST, FELLOWS, FOUNDATION SCHOLARS, & THE OTHER …, priority 2011, dated 2016).

Chains of the proteins cited; added tags and fusions are not shown. Residues count along the entry.
UniProt P10275, 669-900 limits assumed: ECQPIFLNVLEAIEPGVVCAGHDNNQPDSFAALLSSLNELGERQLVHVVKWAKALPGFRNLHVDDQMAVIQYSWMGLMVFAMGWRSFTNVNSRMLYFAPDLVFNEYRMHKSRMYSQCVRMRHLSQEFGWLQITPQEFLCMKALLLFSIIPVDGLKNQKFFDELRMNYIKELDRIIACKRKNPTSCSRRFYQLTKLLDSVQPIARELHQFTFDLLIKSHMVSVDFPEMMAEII

Biological target: AR-LBD wt (Homo sapiens, UniProt P10275)
Assay: Lanthascreen TR-FRET AR coactivator (D11-FxxLF) assay, AR-LBD wt
Type: biochemical

CCCOc1ccc(/C=N/NC(=O)c2cc3c(ccc4ccccc43)o2)cc1 [MDG508]
IC50: 17.9 ± 6.9 µM
